Earlier results on four compounds are cited in US20020115727A1, “Synthesis, methods of using, and compositions of hydroxylated cyclobutylalkylamines” (priority 2000, published 2002).

Amino acid sequences for entries named in this document (tags omitted).
UniProt P23977, whole entry: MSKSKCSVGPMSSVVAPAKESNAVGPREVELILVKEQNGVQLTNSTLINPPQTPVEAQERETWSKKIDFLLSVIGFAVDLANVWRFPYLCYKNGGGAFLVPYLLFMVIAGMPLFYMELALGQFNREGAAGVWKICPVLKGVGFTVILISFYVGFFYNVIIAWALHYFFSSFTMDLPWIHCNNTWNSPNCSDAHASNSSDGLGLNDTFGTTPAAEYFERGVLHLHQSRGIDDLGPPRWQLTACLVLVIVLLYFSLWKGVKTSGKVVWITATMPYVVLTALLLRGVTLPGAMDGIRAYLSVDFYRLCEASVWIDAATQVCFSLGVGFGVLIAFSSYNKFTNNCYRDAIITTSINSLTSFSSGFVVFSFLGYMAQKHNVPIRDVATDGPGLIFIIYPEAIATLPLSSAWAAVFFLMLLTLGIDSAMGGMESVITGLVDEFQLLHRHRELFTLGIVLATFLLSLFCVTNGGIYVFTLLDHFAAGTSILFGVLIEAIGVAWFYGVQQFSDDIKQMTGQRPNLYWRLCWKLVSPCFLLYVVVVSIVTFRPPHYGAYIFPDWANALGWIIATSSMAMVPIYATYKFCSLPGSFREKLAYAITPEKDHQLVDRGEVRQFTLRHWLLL
UniProt P31652, whole entry: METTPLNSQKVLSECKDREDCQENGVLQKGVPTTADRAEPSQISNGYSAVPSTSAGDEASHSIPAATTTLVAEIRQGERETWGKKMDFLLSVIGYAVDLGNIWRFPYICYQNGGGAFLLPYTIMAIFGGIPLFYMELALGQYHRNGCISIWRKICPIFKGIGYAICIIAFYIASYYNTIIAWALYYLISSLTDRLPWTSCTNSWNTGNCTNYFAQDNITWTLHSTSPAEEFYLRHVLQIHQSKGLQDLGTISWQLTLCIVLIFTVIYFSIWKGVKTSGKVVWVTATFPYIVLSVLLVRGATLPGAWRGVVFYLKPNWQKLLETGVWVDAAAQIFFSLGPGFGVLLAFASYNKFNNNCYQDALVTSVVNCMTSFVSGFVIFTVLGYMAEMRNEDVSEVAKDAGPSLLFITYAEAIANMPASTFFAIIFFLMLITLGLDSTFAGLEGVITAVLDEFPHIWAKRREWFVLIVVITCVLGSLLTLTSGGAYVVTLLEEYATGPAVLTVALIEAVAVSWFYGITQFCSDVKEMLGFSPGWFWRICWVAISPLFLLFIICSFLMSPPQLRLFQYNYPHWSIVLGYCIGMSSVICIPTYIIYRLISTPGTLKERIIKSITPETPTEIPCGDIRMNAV

The target of data set [1] is T1, functional uptake of dopamine (DA) into synaptosomes prepared from rat corpora striata (Rattus norvegicus, UniProt P23977).
T1 construct: into synaptosomes prepared from rat whole brain, hypothalamus, or corpora striata, respectively; from tissue; host or cells: rat corpora striata synaptosomes
As to conditions: read-out: IC50 for inhibition of uptake of DA; reported values, basis of comparison; cited from earlier work.

The target of data set [2] is T2, functional uptake of serotonin (5-HT) into synaptosomes prepared from rat whole brain (Rattus norvegicus, UniProt P31652).
T2 construct: into synaptosomes prepared from rat whole brain, hypothalamus, or corpora striata, respectively; from tissue; host or cells: rat whole brain synaptosomes
The following applies: read-out: IC50 for inhibition of uptake of 5-HT; reported values, basis of comparison; cited from earlier work.

As usually defined, the IC50 is the point on the concentration scale where inhibition reaches its midpoint. In the case of `CC(C)C[C@@H](N)C1(c2ccc(Cl)cc2)CCC1` [(R)-DDMS], the IC50 in data set [1] was 8.9 nM. In the case of `CC(C)C[C@H](N)C1(c2ccc(Cl)cc2)CCC1` [(S)-DDMS], the IC50 in data set [1] is 12 nM. For `CN[C@H](CC(C)C)C1(c2ccc(Cl)cc2)CCC1` [(R)-DMS], the IC50 in data set [2] is 44 nM; in data set [1], 12 nM. In the case of `CN[C@@H](CC(C)C)C1(c2ccc(Cl)cc2)CCC1` [(S)-DMS], in data set [1], the IC50 is 180 nM.
